Reference: patent publication US20130274212A1, “Sesterterpene Compounds and Use Thereof” (SNU R&DB FOUNDATION, priority 2010, published 2013)
pEC50: −log10 of the molar value.

Sequences of proteins named here, by UniProt entry; tags and fusion partners are left off. Residues count along the entry.
UniProt Q06219, 360-598 limits assumed: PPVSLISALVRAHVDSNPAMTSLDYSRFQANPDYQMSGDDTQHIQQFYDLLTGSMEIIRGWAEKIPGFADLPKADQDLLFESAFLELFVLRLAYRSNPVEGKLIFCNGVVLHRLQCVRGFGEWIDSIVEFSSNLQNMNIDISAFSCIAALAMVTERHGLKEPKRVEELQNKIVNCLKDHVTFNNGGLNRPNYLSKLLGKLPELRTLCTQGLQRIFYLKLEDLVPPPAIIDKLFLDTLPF

How the values were obtained:
Nurr1 = Nurr1 (Mus musculus, UniProt Q06219); assay: GAL-mNurr1 luciferase reporter transfection assay in CV-1 cells; details: read-out: EC50 value on Nurr1, GAL-mNurr1, luciferase corrected by β-galactosidase, 24 hours
Method: (§1) Animal cell line CV-1 was used in transfection search. Cells were cultured in DMEM medium within a cell incubator containing 5% carbon dioxide at 37° C. The medium contained 10% fetal bovine serum (FBS), 100 U/ml penicillin, and 100 μg/ml streptomycin. On day 1 of the experiment, CV1 cells were seeded in a 96-well plate at 5,000 cells/well. On day 2, the seeded cells were transfected with plasmid expressing GAL-mNurr1, plasmid expressing luciferase gene, and plasmid expressing β-galactosidase by using a transfection reagent, Superfect (QIAGEN). After 16 hours, the transfected cells were treated with compounds of Chemical Formula I dissolved in dimethylsulfoxide (DMSO) by the concentrations. Cells treated with dimethylsulfoxide having the final concentration of 1% were used as a negative control group. After culturing for 24 hours, the cells were lysed by using a lysis buffer, and luciferin was added thereto to measure the luciferase activity by a luminometer. After addition of an ONPG reagent, β-galactosidase activity was measured by an ELISA reader. The measured luciferase value was corrected by the activity value of β-galactosidase. […] Accordingly, it was verified that the compounds of Chemical Formula I were compounds selective to Nurr1.

[1] = test system: various nuclear receptors (RXR, PPAR, PXR, CAR, ER, LRH-1, GR, NGFI-B, ERR, Rev-erb, GCNF, TR, HNF4, COUP, EAR, VDR, AR, DAX-1, TLX, and VDR); assay: Selectivity: antagonistic activity on various other nuclear receptors, same reporter method; details: CV-1 cells, agonists for respective receptors exchanged
Method: as §1, with “expressing GAL-hLXRa or GAL-hLXRB,” for “expressing GAL-mNurr1,”, “expressing β-galactosidase,” for “expressing β-galactosidase”, “the concentrations (here, the final concentration of the LXR agonist, T0901517, was 500 nM).” for “the concentrations.”, “I are antagonist” for “I were”, “to LXR.” for “to Nurr1.”

[2] = test system: Raw264.7 macrophage activated by LPS; assay: Raw264.7 macrophage activated by LPS (qRT-PCR, ELISA, NO assay, western blotting)
Method: In order to test the antiatherogenic efficacy of the compound of Chemical Formula I (e.g., CMDD-X or Compound 7) according to the present invention, Raw264.7 macrophage activated by LPS and HUVEC endotheliocyte activated by TNF-α were used. Raw264.7 macrophage was cultured in DMEM medium within a cell incubator containing 5% carbon dioxide at 37° C. The medium contained 10% fetal bovine serum (FBS), 100 U/ml penicillin, and 100 μg/ml streptomycin. One day before compound treatment, raw264.7 cells were seeded on a 6-well plate at 50,000 cells/well. The next day, the cells were pre-treated with compound CMDD-X, for 1 hour, by the concentrations, and then were treated with 100 ng/ml LPS for 24 hours, and the qRT-PCR was conducted. TNF-α and IL-6 are cytokines involved in the occurrence of atherosclerosis, and generated mainly in the macrophage to induce an inflammatory reaction and induce leukocytes, to thereby advance atherosclerosis. […] In addition, the enzyme-linked immunosorbent assay (ELISA) test was conducted from the compound CMDD-X-treated medium.
The nitric oxide (NO) concentration in the medium of the raw264.7 macrophage treated in the experiment was measured. NO is generated in the macrophage or foam cell present in a lesion site where atherosclerosis is advanced. This causes oxidative stress in the blood to generate oxLDL, and is involved in the rupture of the atherosclerosis progression site. In addition, it may be seen from iNOS previously reported and the apoE-deficient mouse results that NO generated by iNOS functions as an important factor in the occurrence and progression of atherosclerosis (Detmers P A et. al., J. Immunol. 2000, 3430-3435). […] In order to confirm whether or not iNOS expression is expressed by the compound CMDD-X, western blotting was conducted with respect to Raw264.7 macrophage activated with 100 ng/ml LPS for 8 hours after a 1 hour-pretreatment. As the result, the expression of iNOS increased by LPS was reduced by the compound CMDD-X (FIG. 24).

[3] = 1 hour pre-treatment, 100 ng/ml LPS 24 hours, qRT-PCR, as concentration increased

SMILES: CC(C)=CCC/C(C)=C/[C@@H]1CC(C)=C[C@]2(C=C(CO)[C@H]3CC(=O)C(C)=C[C@H]3O2)O1
- pEC50 (Nurr1): 7.15
- antagonistic activity on the other nuclear receptors (selectivity) [1]: never showed antagonistic activity on the other nuclear receptors
- expression of IL-6 gene [2, 3]: significantly decreased
- expression of TNF-α gene [2, 3]: significantly decreased
- expression of iNOS increased by LPS ([2]; 1 hour pretreatment, 100 ng/ml LPS 8 hours, western blotting): reduced
- IL-6 secretion ([2]; ELISA from the treated medium): significantly reduced
- nitric oxide (NO) concentration in the medium ([2]; NO assay, as concentration increased): significantly decreased
